Values of other authors in paper PMC3086679.

What was measured:
[1] = biological target: mastoparan (Vespula lewisii) (UniProt P01514)
[2] = biological target: melittin (Apis mellifera) (UniProt P01501)

Question: What does the source list for calmodulin (from UniProt P0DP23)?
Answer: Kd [1]: 0.3 nM; Kd [2]: 3 nM
